Laboratory results reported in patent publication US6444670B2 (Wyeth, priority 1998, dated 2002).

The chains behind the UniProt entries cited, without tags or fusion partners. Where a name states a change or a piece, a line headed by the entry shows the natural chain unless it says otherwise.
UniProt P18031: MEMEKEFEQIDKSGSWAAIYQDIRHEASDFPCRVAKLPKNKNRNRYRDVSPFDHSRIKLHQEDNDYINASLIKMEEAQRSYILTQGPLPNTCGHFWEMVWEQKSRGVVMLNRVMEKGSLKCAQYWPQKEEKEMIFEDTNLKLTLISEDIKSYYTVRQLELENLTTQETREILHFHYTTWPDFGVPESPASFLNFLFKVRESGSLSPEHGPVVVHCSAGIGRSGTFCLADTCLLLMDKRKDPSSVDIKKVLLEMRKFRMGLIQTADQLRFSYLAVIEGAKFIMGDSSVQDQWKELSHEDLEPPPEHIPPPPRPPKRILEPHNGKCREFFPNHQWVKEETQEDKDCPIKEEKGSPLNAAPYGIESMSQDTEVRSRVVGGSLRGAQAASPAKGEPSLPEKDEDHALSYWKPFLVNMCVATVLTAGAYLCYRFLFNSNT

Legend:
[1] = molecular target: Human recombinant PTP1B (hPTP1B) (Homo sapiens, UniProt P18031); test: Inhibition of tri-phosphorylated insulin receptor dodecaphosphopeptide dephosphorylation by hPTP1B; format: biochemical
[2] = system: rat hepatic microsomal PTPases; test: Inhibition of tri-phosphorylated insulin receptor dodecaphosphopeptide dephosphorylation by rat hepatic PTPases; conditions: 50 μM compound

Phenylarsine oxide
IC50 [1]: 39.7 µM | % Change from Control [2]: −57.06%
